Source: ChEMBL document CHEMBL4007421, “Discovery and Preclinical Characterization of 3-((4-(4-Chlorophenyl)-7-fluoroquinoline-3-yl)sulfonyl)benzonitrile, a Novel Non-acetylenic Metabotropic Glutamate Receptor 5 (mGluR5) Negative Allosteric Modulator for Psychiatric Indications” (J Med Chem, 2017)

Sequences of proteins named here, by UniProt entry; tags and fusion partners are left off.
UniProt P31424, whole entry: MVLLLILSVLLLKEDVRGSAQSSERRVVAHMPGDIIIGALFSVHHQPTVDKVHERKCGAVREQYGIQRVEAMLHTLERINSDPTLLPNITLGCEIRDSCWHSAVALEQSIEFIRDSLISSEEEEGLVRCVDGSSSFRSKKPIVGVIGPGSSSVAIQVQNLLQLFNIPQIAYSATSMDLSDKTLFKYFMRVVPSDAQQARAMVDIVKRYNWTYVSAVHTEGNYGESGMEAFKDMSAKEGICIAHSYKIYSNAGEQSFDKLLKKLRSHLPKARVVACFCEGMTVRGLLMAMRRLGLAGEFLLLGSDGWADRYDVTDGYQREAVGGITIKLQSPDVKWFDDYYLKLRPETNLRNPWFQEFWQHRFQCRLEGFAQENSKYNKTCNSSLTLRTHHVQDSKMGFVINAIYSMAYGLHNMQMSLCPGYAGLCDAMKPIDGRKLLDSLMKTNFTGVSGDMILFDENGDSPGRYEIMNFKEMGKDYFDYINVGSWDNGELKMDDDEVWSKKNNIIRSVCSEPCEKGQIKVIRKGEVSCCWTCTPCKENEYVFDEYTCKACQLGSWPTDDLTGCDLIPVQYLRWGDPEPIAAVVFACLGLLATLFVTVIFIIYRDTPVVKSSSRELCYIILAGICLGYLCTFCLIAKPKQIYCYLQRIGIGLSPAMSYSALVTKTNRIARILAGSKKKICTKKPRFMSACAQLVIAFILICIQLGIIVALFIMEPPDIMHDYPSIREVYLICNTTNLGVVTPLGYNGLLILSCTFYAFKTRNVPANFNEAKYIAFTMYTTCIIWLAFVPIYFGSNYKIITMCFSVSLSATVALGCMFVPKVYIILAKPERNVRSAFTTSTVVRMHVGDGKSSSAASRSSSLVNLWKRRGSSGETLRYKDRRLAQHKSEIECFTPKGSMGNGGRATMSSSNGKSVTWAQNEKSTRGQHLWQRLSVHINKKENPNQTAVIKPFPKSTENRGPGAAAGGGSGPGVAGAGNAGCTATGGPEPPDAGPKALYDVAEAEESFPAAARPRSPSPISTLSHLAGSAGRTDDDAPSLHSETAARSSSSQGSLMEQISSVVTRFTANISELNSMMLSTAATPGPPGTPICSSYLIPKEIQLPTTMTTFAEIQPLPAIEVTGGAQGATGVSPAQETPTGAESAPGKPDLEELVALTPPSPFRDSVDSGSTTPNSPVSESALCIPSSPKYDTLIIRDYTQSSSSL

Target: Metabotropic glutamate receptor 5 (Rattus norvegicus, UniProt P31424)
Experiment: Displacement of [3H]M-MPEP from mGluR5 in Sprague-Dawley rat cerebrocortical membranes after 60 mins

SMILES: Cc1cccc(C#Cc2ccccc2)n1
- Ki: 9.6 nM
